The numbers were not newly measured in patent US20250170103A1, “4-(6-OXO-2-(TRIFLUOROMETHYL)-3,6-DIHYDROCHROMENO[7,8-D]IMIDAZOL-8-YL)BENZONITRILE FOR USE IN THE TREATMENT OF DISEASES AND CONDITIONS ASSOCIATED WITH MOVEMENT DISORDERS” (OnTrack Therapeutics Limited, priority 2022, published 2025), which cites them from elsewhere.

Each structure is given as a SMILES string.

The test system of the data set is ALS patients. The settings on record: several months; cited from earlier work.

Take `Nc1nc2ccc(OC(F)(F)F)cc2s1` [Riluzole, reference compound]: the prolongation of survival is recorded as about 7%.
